Experimental data: article PMC10089971 (British journal of pharmacology, 2023)
Where a name gives a salt, the structure may show the parent alone.

Conditions: CPT-11 co-administration

Compound: CCc1c2c(nc3ccc(OC(=O)N4CCC(N5CCCCC5)CC4)cc13)-c1cc3c(c(=O)n1C2)COC(=O)[C@]3(O)CC [CPT-11, Irinotecan hydrochloride]
- morphine metabolism: did not appear to alter morphine metabolism
